The values below are quoted from earlier work in patent US20090226517A1, “PHARMACEUTICAL FORMULATIONS COMPRISING DULOXETINE” (priority 2008, published 2009).

The conditions of the data set: background statement.

For `CNCC[C@H](Oc1cccc2ccccc12)c1cccs1.Cl` [Duloxetine hydrochloride, (+)-(S)—N-methyl-γ-(1-naphthyloxy)-2-thiophenepropylamine hydrochloride], the Solubility in water result is “slightly soluble in water”.
